Measurements published in PMC7723054.
This is one part of the list.

T1: LIN28A (human?, UniProt Q9H9Z2 1-209)
T1 sequence: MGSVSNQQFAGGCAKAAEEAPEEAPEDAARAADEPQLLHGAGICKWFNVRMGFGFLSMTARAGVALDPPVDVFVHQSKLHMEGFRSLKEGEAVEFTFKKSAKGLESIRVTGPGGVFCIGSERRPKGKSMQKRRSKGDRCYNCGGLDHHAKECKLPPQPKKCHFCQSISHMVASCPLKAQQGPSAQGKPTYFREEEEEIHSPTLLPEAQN

T2: CIRBP (Homo sapiens, UniProt Q14011 1-172)
T2 sequence: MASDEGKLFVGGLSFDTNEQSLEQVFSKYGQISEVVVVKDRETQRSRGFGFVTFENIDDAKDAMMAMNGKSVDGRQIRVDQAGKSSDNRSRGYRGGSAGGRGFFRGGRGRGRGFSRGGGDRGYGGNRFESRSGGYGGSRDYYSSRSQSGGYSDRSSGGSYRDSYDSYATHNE

T3: DHX36 (Homo sapiens, UniProt Q9H2U1 1-1008)
T3 sequence: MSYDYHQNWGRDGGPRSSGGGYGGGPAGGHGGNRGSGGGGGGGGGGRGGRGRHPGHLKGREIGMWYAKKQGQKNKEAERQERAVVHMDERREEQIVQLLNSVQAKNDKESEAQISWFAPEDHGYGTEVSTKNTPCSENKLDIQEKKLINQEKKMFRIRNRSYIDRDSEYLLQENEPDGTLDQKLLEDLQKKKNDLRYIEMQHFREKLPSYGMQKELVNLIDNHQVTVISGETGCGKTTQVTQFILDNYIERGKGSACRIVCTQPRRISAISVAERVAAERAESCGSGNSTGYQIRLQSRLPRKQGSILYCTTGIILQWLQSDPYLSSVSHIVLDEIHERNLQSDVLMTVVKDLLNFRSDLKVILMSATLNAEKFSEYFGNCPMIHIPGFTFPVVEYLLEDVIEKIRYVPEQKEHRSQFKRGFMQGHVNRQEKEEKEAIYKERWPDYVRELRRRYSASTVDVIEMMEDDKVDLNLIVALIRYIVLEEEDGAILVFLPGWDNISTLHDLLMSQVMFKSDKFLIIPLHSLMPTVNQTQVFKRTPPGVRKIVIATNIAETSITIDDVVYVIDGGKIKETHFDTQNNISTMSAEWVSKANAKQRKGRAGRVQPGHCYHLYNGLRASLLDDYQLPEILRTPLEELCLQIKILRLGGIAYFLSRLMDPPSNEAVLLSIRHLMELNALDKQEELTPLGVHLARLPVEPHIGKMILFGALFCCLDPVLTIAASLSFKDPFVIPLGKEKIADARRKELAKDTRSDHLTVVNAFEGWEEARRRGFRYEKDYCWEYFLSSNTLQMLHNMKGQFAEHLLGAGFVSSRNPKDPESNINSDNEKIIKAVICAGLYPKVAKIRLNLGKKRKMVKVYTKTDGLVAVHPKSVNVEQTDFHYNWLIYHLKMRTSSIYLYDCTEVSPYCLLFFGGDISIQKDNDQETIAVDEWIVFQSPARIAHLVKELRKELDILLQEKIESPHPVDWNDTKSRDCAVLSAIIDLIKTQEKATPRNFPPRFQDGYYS


Assays:
Assay in all cases: FOREST: bead pull-down of RNA structure library v1, barcode microarray; U1A/LIN28A: 20 mM HEPES pH 7.5, 80 mM KCl, 20 mM NaCl, 10% glycerol, 2 mM DTT, 0.1 ug/uL BSA, 4 C; BG4/CIRBP/DHX36: 10 mM Tris-HCl pH 7.5, 100 mM KCl (or LiCl),; high values mean tight binding
LIN28A = target: T1, LIN28A
CIRBP = target: T2, CIRBP
DHX36 = target: T3, DHX36

Row | Binder | binding signal (LIN28A) | binding signal (CIRBP) | binding signal (DHX36)
1 | hsa-mir-675 (structured_RNA) RNA: GGGAGCUUCGUUCAGUCGCAUGAAAACAGGUGUACGAAGUUUCAGCACAGUGGACUUGGUGACGCUGUGCUGAAGCUUCGUGCAC | -0.662 z-score | -0.29 z-score | 0.893 z-score
2 | hsa-mir-3123 (structured_RNA) RNA: GGGAAAACUAGCGGAUGCCUGGUGGAUGGGUGUACGAAGUUUCAGCUCCCAUUUCCACAUGGAGAGUGGAGCCCAGAGCUGAAGCUUCGUGCAC | -0.667 z-score | 0.00805 z-score | -0.248 z-score
3 | hsa-mir-3159 (structured_RNA) RNA: GGGAGGAGUCGUAGCCCUACCCCAUAAUGGUGUACGAAGUUUCAGCCCACGGGCUGGGCACAGUGGGCUGAAGCUUCGUGCAC | -0.67 z-score | -1.07 z-score | -0.405 z-score
4 | hsa-mir-635 (structured_RNA) RNA: GGGAAACUCAGUGAAGGCUGCUAGAUACGGUGUACGAAGUUUCAGCGUCCAUUAGGCUUUGUUAUGGAAACUUCUCCUGAUCGCUGAAGCUUCGUGCAC | -0.67 z-score | 0.987 z-score | -1.09 z-score
5 | hsa-mir-378g (structured_RNA) RNA: GGGAUGGCGCAUUCGCAGGCAUUUAUCAGGUGUACGAAGUUUCAGCAGAAGACCUGCUGAAGCUUCGUGCAC | -0.67 z-score | 0.778 z-score | -0.044 z-score
6 | hsa-mir-92a-1 (structured_RNA) RNA: GGGAAUAACGGCCCUUAGAAAGACUCCGGGUGUACGAAGUUUCAGCAAUGCUGUGUUUCUGUAUGGUAUUGCUGAAGCUUCGUGCAC | -0.671 z-score | -0.136 z-score | -0.602 z-score
7 | hsa-mir-3977 (structured_RNA) RNA: GGGAACAAGACUAGGGCCCACCAGUUGCGGUGUACGAAGUUUCAGCCUUAAGUGGUUCGGGUAAAUCACUUUAAGCUGAAGCUUCGUGCAC | -0.673 z-score | 0.5 z-score | -0.201 z-score
8 | hsa-mir-548ab (structured_RNA) RNA: GGGAACAGUCCAGGGGUUAUGUCCUGAUGGUGUACGAAGUUUCAGCUGCUAUUACUUGUAUUUAUUUGUAAUGCAGCUGAAGCUUCGUGCAC | -0.675 z-score | -0.249 z-score | -0.434 z-score
9 | hsa-mir-3607 (structured_RNA) RNA: GGGAACGUAUAGAUACUGCCAGCUAUGAGGUGUACGAAGUUUCAGCCAGUAUGAAUGAAUUCAUGAUACUGGCUGAAGCUUCGUGCAC | -0.678 z-score | 0.215 z-score | -0.301 z-score
10 | hsa-mir-1976 (structured_RNA) RNA: GGGAGGUAACUUGUAGGCCGCCGUACAUGGUGUACGAAGUUUCAGCGGGUCCUAAGGUGUGUCCUCGCUGAAGCUUCGUGCAC | -0.678 z-score | -1.61 z-score | -0.603 z-score
11 | hsa-mir-4725 (structured_RNA) RNA: GGGAAGUCGGAAUUACGACGAUAUCCUUGGUGUACGAAGUUUCAGCCCACCCACCAGGGAGCUUUCCAUGGGCUGUGGGGCUGAAGCUUCGUGCAC | -0.678 z-score | 0.095 z-score | -1.03 z-score
12 | hsa-mir-4697 (structured_RNA) RNA: GGGAAAAUAGGUAAGAGACAAUGAUCGCGGUGUACGAAGUUUCAGCGACGUGAAGGGACCACAUCCCGCUUCAUGUCGCUGAAGCUUCGUGCAC | -0.679 z-score | -0.0335 z-score | 0.162 z-score
13 | hsa-mir-4305 (structured_RNA) RNA: GGGAAAGUUAACAACAUGGCCUAUCUCGGGUGUACGAAGUUUCAGCCUGGGUUCUUAGAGGCCUAAUCCUCUACAAACUCAGUUUGCUGAAGCUUCGUGCAC | -0.681 z-score | 0.0186 z-score | -0.879 z-score
14 | hsa-mir-6843 (structured_RNA) RNA: GGGACCGCUGAAACAUGUCAGUCACUGGGGUGUACGAAGUUUCAGCCCCUGGGGAGCUGCUGCAGGCAGCAGGUGGGCGGGACGCCAGCAGGCUGUCUAGCUGUUCCCAUGAUGGGCUGAAGCUUCGUGCAC | -0.685 z-score | -1.01 z-score | 1.88 z-score
15 | hsa-mir-1469 (structured_RNA) RNA: GGGAGUUGUGAAUAUCGUCGGACCUGUGGGUGUACGAAGUUUCAGCCUCCGGGUUGGGGGCUGAAGCUUCGUGCAC | -0.685 z-score | -2.01 z-score | -0.201 z-score
16 | hsa-mir-548ao (structured_RNA) RNA: GGGACCGAAGGGUCCACACCGAUAUACUGGUGUACGAAGUUUCAGCUUUUGCAGUUGAAAGUAAUGGCAAAGGCUGAAGCUUCGUGCAC | -0.696 z-score | -1.36 z-score | -1.55 z-score
17 | hsa-mir-3646 (structured_RNA) RNA: GGGAAGUAAGCGUAAUAAGCACCUAGUUGGUGUACGAAGUUUCAGCUUUUCAUGACAACCCUAUAUGGGAAAAUGUUGUGAAAAGCUGAAGCUUCGUGCAC | -0.698 z-score | 0.167 z-score | -0.5 z-score
18 | hsa-mir-4734 (structured_RNA) RNA: GGGACCUUGAACGGACGAGCGACUUUCAGGUGUACGAAGUUUCAGCCACCUCCCGGCCCGGAGCUGGCUGAAGCUUCGUGCAC | -0.701 z-score | -0.256 z-score | -0.81 z-score
19 | hsa-mir-548ac (structured_RNA) RNA: GGGAGAAGGCCGCGCUAUCAUCACAAAGGGUGUACGAAGUUUCAGCUUUGCUAUUUUUUUUUAAUGGCAAAGCUGAAGCUUCGUGCAC | -0.703 z-score | 0.453 z-score | -0.419 z-score
20 | hsa-mir-592 (structured_RNA) RNA: GGGAACAGUAGGCGAGACAUCUUGAGACGGUGUACGAAGUUUCAGCAUGUGUUGUGAUGGCACAGCGUGCUGAAGCUUCGUGCAC | -0.706 z-score | -0.141 z-score | -0.757 z-score
21 | hsa-mir-551a (structured_RNA) RNA: GGGAAAGGAGAAGUGCGUCAUGCUAUUGGGUGUACGAAGUUUCAGCGGGCCAGUCUGACCGUUUCUAGGCGGCUGAAGCUUCGUGCAC | -0.706 z-score | 0.433 z-score | 0.581 z-score
22 | hsa-mir-4716 (structured_RNA) RNA: GGGACUGGCAGAGUUGUCGAUGCUGCAUGGUGUACGAAGUUUCAGCCCUUCUGUAUACAUGUAUACAGGAGGAAGGGCUGAAGCUUCGUGCAC | -0.707 z-score | -0.141 z-score | -0.967 z-score
23 | hsa-mir-6844 (structured_RNA) RNA: GGGAACCCGGGAGGGUCUAAAUAAAGACGGUGUACGAAGUUUCAGCAGAAAUCAAGCUAUUUGCUAAAAGUUCUGCUGAAGCUUCGUGCAC | -0.707 z-score | 1.16 z-score | -0.0949 z-score
24 | hsa-mir-6090 (structured_RNA) RNA: GGGAAAAGCGGUCAACGCACCGUAACGUGGUGUACGAAGUUUCAGCGCCCUGGGCCGGGCGAUGUCCGCUUGGGGGGCUGAAGCUUCGUGCAC | -0.713 z-score | -0.602 z-score | -0.36 z-score
25 | hsa-mir-4471 (structured_RNA) RNA: GGGAGCAAGCGCGAUCAUAUCGACCCAUGGUGUACGAAGUUUCAGCUCCAUGAAAAGAACCCAUGGGGCUGAAGCUUCGUGCAC | -0.717 z-score | -0.845 z-score | -0.0541 z-score
